Here are results for 1 molecule from paper PMC7870662, “General synthetic strategy for regioselective ultrafast formation of disulfide bonds in peptides and proteins” (Nature Communications, 2021).

pIC50: −log10 of the molar value.

The experiment concerns methicillin resistant staphylococcus aureus (MRSA). Put plainly: Antimicrobial assay for plectasin (absorbance 600 nm, MRSA growth). It counts as cell-based. The conditions noted are these: 7 h, absorbance at 600 nm. On the procedure:
Fig. 4 Synthesis of plectasin employing our synthetic design. a HPLC-ESI MS analyses Reaction at time zero, the main peak corresponds to reduced plectasin with the observed mass 4801.1 ± 0.1 Da, calcd. 4801.0 Da (average isotopes). b Reaction after 10 s: the main peak corresponds to plectasin with single disulfide bond, with the observed mass 4798.2 ± 0.1 Da, calcd. 4798.0 Da (average isotopes). c Reaction after 8 min, the main peak corresponds to plectasin with two disulfide bonds with the observed mass 4526.2 ± 0.2 Da, calcd. 4527.0 Da (average isotopes). d Reaction after 13 min, the main peak corresponds to fully oxidized plectasin with the observed mass 4382.9 ± 0.1 Da, calcd. 4383.0 Da (average isotopes). e Plectasin activity assay: absorbance monitoring at 600 nm for methicillin resistant staphylococcus aureus (MRSA) growth after 7 h in the absence (in light blue) and presence (in light red) of synthetic plectasin and MRSA in the presence of trimethoprim (TMP) (in gray). […]
the protein solution was determined by Pierce® BCA Protein Assay Kit, Thermo
scientific. The circular dichroism spectrum was recorded in a Chirascan (Applied […]
The exact concentration of the protein solution was determined by Pierce® BCA
Protein Assay Kit, Thermo scientific. The circular dichroism spectrum was recorded in […]
absorbance readings at 600 nm to measure bacterial growth. […]

Usually pIC50 stands for the IC50 on a negative log10 scale, so that one unit is a factor of ten. For the setting “MRSA growth in LB medium, serial two-fold dilutions of synthetic plectasin, 37 °C in ambient air, n = 3 biologically independent samples”, `CCCC[C@@H]1NC(=O)[C@H](CC(=O)O)NC(=O)[C@H](CC(=O)O)NC(=O)[C@H](CCC(=O)O)NC(=O)[C@H](CC(=O)O)NC(=O)[C@H](Cc2c[nH]c3ccccc23)NC(=O)[C@@H]2CCCN2C(=O)CNC(=O)[C@H](CC(N)=O)NC(=O)[C@@H](NC(=O)CNC(=O)[C@H](Cc2ccccc2)NC(=O)CN)CSSC[C@@H]2NC(=O)[C@H](Cc3ccc(O)cc3)NC(=O)CNC(=O)CNC(=O)[C@H](CCCCN)NC(=O)[C@H](Cc3ccc(O)cc3)NC(=O)CNC(=O)[C@H](CCCCN)NC(=O)[C@H]([C@@H](C)CC)NC(=O)[C@H](CO)NC(=O)[C@H](CCCCN)NC(=O)[C@@H]3CSSC[C@@H](C(=O)N[C@@H](Cc4ccc(O)cc4)C(N)=O)NC(=O)[C@H](CCCCN)NC(=O)[C@H](CSSC[C@H](NC(=O)[C@H](CCC(N)=O)NC1=O)C(=O)N[C@@H](Cc1c[nH]cn1)C(=O)N[C@@H](CC(N)=O)C(=O)N[C@@H](Cc1c[nH]cn1)C(=O)N3)NC(=O)[C@H](C(C)C)NC(=O)[C@H](Cc1ccccc1)NC(=O)CNC(=O)CNC(=O)[C@H](CCCCN)NC(=O)[C@H](C)NC2=O` [plectasin] had a pIC50 of 5.70 to 5.82. Also, the “biological antibiotic activity” value (synthetic plectasin, MRSA, LB medium, 37 °C, n = 3) was “exhibited the expected biological antibiotic activity”.
